# Source: PubChem BioAssay AID588352 (The Scripps Research Institute Molecular Screening Center, 2011)
# Chains of the proteins cited; added tags and fusions are not shown.
# UniProt Q9Y6Q9, whole entry: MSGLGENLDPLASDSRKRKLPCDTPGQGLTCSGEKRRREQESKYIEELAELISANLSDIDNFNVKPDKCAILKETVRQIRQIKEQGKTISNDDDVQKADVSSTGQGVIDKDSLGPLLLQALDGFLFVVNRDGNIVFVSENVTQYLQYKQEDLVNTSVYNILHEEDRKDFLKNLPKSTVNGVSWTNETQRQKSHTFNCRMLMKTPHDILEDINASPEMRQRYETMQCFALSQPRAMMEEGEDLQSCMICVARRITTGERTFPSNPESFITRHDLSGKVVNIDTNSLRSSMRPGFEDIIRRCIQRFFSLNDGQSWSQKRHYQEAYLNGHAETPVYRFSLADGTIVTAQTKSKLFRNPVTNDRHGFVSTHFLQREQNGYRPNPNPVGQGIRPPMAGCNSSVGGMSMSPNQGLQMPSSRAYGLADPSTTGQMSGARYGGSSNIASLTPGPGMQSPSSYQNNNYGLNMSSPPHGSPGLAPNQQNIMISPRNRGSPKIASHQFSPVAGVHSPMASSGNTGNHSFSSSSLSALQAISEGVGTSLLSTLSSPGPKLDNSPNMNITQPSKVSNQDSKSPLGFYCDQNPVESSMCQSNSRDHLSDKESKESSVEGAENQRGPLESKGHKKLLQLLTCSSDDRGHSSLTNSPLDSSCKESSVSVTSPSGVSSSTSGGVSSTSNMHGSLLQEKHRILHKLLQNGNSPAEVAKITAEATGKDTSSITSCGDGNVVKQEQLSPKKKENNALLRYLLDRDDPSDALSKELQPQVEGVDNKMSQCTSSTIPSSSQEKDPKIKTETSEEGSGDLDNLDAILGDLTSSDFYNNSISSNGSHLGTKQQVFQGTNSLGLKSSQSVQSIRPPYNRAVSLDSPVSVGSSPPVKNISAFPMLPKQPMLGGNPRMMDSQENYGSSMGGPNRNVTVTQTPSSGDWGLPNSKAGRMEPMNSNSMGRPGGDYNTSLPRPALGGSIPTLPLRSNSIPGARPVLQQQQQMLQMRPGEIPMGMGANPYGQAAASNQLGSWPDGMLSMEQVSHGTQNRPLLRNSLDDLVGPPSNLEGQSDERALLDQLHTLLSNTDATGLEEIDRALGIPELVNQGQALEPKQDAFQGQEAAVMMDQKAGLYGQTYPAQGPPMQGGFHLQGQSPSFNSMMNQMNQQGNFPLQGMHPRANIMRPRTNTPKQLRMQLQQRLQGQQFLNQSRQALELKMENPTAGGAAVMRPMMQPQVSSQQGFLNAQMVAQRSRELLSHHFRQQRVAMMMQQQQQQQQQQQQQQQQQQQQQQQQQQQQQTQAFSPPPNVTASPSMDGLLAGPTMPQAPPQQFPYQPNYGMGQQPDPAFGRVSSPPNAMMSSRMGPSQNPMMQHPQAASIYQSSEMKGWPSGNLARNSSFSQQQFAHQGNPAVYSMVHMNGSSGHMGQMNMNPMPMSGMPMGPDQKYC
# This is a selection; strong and weak results do not stand in their true shares. The source made the active and inactive calls.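 Rule for the calls: active = inhibition above a per-campaign cutoff, the mean of all compounds plus 3 SD (cut at about 60% in these data); inactive = the rest.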
# Target: Nuclear receptor coactivator 3 (Homo sapiens) (UniProt Q9Y6Q9)
# Assay: SRC3 coactivator transcriptional activity inhibitors, primary screen, cell-based, luminescence (AID 588352);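 note: 0% = DMSO-treated cells and 100% = gossypol-treated cells at 36 µM; higher means less SRC3-driven luciferase light from the GAL4 reporter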
# Conditions: HEK293 GAL4-SRC3 luciferase reporter, at 3.6 µM, hits give high values
row,SMILES,inhibition
1,O=C(NCC1(N2CCCCC2)CCCCC1)c1ccc(OC(F)F)cc1,inactive: 2.62%
2,CC(C)(C)n1nnnc1C(c1ccccc1OC(F)(F)F)N1CCC(n2c(=O)[nH]c3ccccc32)CC1 (configuration not stated),inactive: 17.4%
3,N#CC1(Nc2ccccc2)CCN(CCc2ccccc2)CC1,inactive: 0.09%
4,O=c1[nH]c2ccccc2n1C1CCN(C(c2ccccc2OC(F)(F)F)c2nnnn2C2CCCC2)CC1 (configuration not stated),inactive: -3.64%
5,CCN1CCC(Nc2ccc(Cl)cc2)CC1,inactive: 7.28%
6,O=C(NCC1(N2CCCCC2)CCCCC1)c1cccc([N+](=O)[O-])c1,inactive: -17.2%
7,CSc1ccc(C(=O)NCC2(N3CCOCC3)CCCCC2)cc1,inactive: -0.2%
8,O=C(NCC1(N2CCCCC2)CCCCC1)c1cccc(C(F)(F)F)c1,inactive: 12.6%
9,COc1cc(C(=O)NCC2(N3CCCCC3)CCCCC2)ccc1OC(F)F,inactive: 11.7%
10,O=C(NCC1(N2CCOCC2)CCCCC1)c1cc(=O)[nH]c2ccccc12,inactive: 12.6%
11,CCCCn1nnnc1C(c1cccc2ccccc12)N1CCC(n2c(=O)[nH]c3ccccc32)CC1 (configuration not stated),inactive: 10.4%
12,CN1CCN(CCOC(=O)C(O)(c2ccccc2)c2ccccc2)CC1,inactive: 20.7%
13,COc1ccc(NC2CCN(C(=O)OC(C)(C)C)CC2)cc1,inactive: -1.13%
14,CC(C)c1ccc(C(=O)NCC2(N3CCOCC3)CCCCC2)cc1,inactive: -17.1%
15,CCCCn1nnnc1C(c1ccccc1OC(F)(F)F)N1CCC(n2c(=O)[nH]c3ccccc32)CC1 (configuration not stated),inactive: 20.7%
16,CC(C)c1ccc(NC2CCN(C(=O)OC(C)(C)C)CC2)cc1,inactive: -61.5%
17,CN(C)c1cccc(C(=O)NCC2(N3CCCCC3)CCCCC2)c1,inactive: -9.34%
18,COc1ccc(CN(CCCl)CCCl)cc1Cl,inactive: 4.06%
19,CCC(c1nnnn1C(C)(C)C)N1CCC(n2c(=O)[nH]c3ccccc32)CC1 (configuration not stated),inactive: -10%
20,O=C(NCC1(N2CCOCC2)CCCCC1)c1cc(F)c(F)cc1Cl,inactive: 9.79%
21,COc1cc(OC)c(C(=O)NCC2(N(C)C)CCCCC2)cc1OC,inactive: 3.39%
22,CCCCn1nnnc1C(c1ccnc2ccccc12)N1CCC(n2c(=O)[nH]c3ccccc32)CC1 (configuration not stated),inactive: 0.26%

row,SMILES,inhibition
1,O=C(NCC1(N2CCCCC2)CCCCC1)c1cncc(Br)c1,inactive: 0.1%
2,CN1CCC(Nc2cccc(F)c2)CC1,inactive: -4.88%
3,COc1ccc(C(c2nnnn2C2CCCC2)N2CCC(n3c(=O)[nH]c4ccccc43)CC2)cc1 (configuration not stated),inactive: -0.3%
4,CCCOc1ccc(C(=O)NCC2(N(C)C)CCCCC2)cc1OC,inactive: 6.53%
5,Cc1ccc(C(=O)NCC2(N(C)C)CCCCC2)o1,inactive: -9.86%
6,CCC(c1nnnn1C1CCCC1)N1CCC(n2c(=O)[nH]c3ccccc32)CC1 (configuration not stated),inactive: 2.66%
7,COc1ccc(C(=O)NCC2(N3CCCCC3)CCCCC2)c(OC)c1OC,inactive: 7.38%
8,CC(C)(C)OC(=O)N1CCC(N(C(=O)c2ccccc2)c2ccc(F)cc2)CC1,inactive: -11%
9,COc1ccc(C(=O)NCC2(N3CCCCC3)CCCCC2)cc1,inactive: -1.16%
10,CCCCn1nnnc1C(c1cccs1)N1CCC(n2c(=O)[nH]c3ccccc32)CC1 (configuration not stated),inactive: 23.9%
11,CCCCn1nnnc1C(CC)N1CCC(n2c(=O)[nH]c3ccccc32)CC1 (configuration not stated),inactive: -23.4%
12,O=C(NCC1(N2CCCCC2)CCCCC1)c1cccs1,inactive: 15.4%
13,O=C(NCC1(N2CCCCC2)CCCCC1)c1ccc(=O)[nH]c1,inactive: -32.7%
14,Cc1cccc(NC2(C#N)CCN(Cc3ccccc3)CC2)c1,inactive: -18.1%
15,CSc1ccccc1C(=O)NCC1(N2CCCCC2)CCCCC1,inactive: 0.17%
16,Cc1cc(C)cc(N(C(=O)c2ccccc2)C2CCN(C(=O)OC(C)(C)C)CC2)c1,inactive: 20.1%
17,O=c1[nH]c2ccccc2n1C1CCN(C(c2ccccc2OC(F)(F)F)c2nnnn2C2CCCCC2)CC1 (configuration not stated),inactive: 9.23%
18,O=C(NCC1(N2CCCCC2)CCCCC1)c1ccc(Cl)nc1,inactive: -3.86%
19,O=C(NCC1(N2CCOCC2)CCCCC1)c1cc2ccccc2o1,inactive: 2.62%
20,COc1ccc(Cl)cc1C(=O)NCC1(N2CCOCC2)CCCCC1,inactive: -12.4%
21,O=C(OC1CN2CCC1CC2)C1c2ccccc2Oc2ccccc21 (configuration not stated),inactive: 2.35%
22,O=c1[nH]c2ccccc2n1C1CCN(C(c2cc3ccccc3o2)c2nnnn2C2CCCCC2)CC1 (configuration not stated),inactive: -1.97%

row,SMILES,inhibition
1,O=C(NCC1(N2CCCCC2)CCCCC1)c1ccc(Cl)s1,inactive: -1.52%
2,N#CC1(Nc2ccccc2)CCN(Cc2ccccc2)CC1,inactive: -2.94%
3,CCCCn1nnnc1C(c1ccc(OC)cc1)N1CCC(n2c(=O)[nH]c3ccccc32)CC1 (configuration not stated),inactive: 5.21%
4,CCOC(=O)N1CCC(Nc2ccc(OC)cc2)CC1,inactive: 10.2%
5,O=C1CCN(Cc2ccccc2)CC1,inactive: -3.35%
6,CC(C)(C)n1nnnc1C(c1ccccc1)N1CCC(n2c(=O)[nH]c3ccccc32)CC1 (configuration not stated),inactive: -6.75%
7,CCOc1ccc(C)cc1CN(CCCl)CCCl,inactive: 16.8%
8,COc1ccc(NC2CCN(CCc3ccccc3)CC2)c(OC)c1,inactive: 20.1%
9,CCOC(=O)N1CCC(Nc2ccc(F)cc2)CC1,inactive: 3.59%
10,O=C(NCC1(N2CCCCC2)CCCCC1)c1ccc(F)cc1,inactive: 1.56%
11,CCCCn1nnnc1C(c1cc2ccccc2o1)N1CCC(n2c(=O)[nH]c3ccccc32)CC1 (configuration not stated),inactive: 17.8%
12,O=P1(N(CCCl)CCCl)SCCCS1,inactive: -11.3%
13,CCCCOc1ccc(C(=O)NCC2(N3CCOCC3)CCCCC2)cc1,inactive: 14.6%
14,O=c1[nH]c2ccccc2n1C1CCN(C(c2ccccc2)c2nnnn2C2CCCCC2)CC1 (configuration not stated),inactive: 5.38%
15,COc1cc(C(=O)NCC2(N(C)C)CCCCC2)ccc1OC(F)F,inactive: 0.85%
16,CCOC(=O)N1CCC(Nc2cccc(C)c2)CC1,inactive: -2.23%
17,O=c1[nH]c2ccccc2n1C1CCN(C(c2cccc3ccccc23)c2nnnn2C2CCCC2)CC1 (configuration not stated),inactive: 14.1%
18,CCC(c1nnnn1C1CCCCC1)N1CCC(n2c(=O)[nH]c3ccccc32)CC1 (configuration not stated),inactive: 8.21%
19,CC(=O)N(c1ccccc1)C1CCNCC1,inactive: 4.78%
20,COc1cccc(C(c2nnnn2C2CCCCC2)N2CCC(n3c(=O)[nH]c4ccccc43)CC2)c1OC (configuration not stated),inactive: 6.62%
21,O=c1[nH]c2ccccc2n1C1CCN(C(c2ccnc3ccccc23)c2nnnn2C2CCCCC2)CC1 (configuration not stated),inactive: 0.29%
22,COc1cc(OC)cc(C(=O)NCC2(N3CCCCC3)CCCCC2)c1,inactive: 10.7%

row,SMILES,inhibition
1,Fc1ccccc1NC1CCN(Cc2ccccc2)CC1,inactive: -9.95%
2,Cc1ccc(C(=O)NCC2(N3CCCCC3)CCCCC2)o1,inactive: 11.9%
3,Cc1ccc(NC2(C#N)CCN(Cc3ccccc3)CC2)cc1,inactive: -3.79%
4,CC(C)(C)n1nnnc1C(c1ccnc2ccccc12)N1CCC(n2c(=O)[nH]c3ccccc32)CC1 (configuration not stated),inactive: 23.5%
5,COc1ccc(C(c2nnnn2C2CCCCC2)N2CCC(n3c(=O)[nH]c4ccccc43)CC2)cc1 (configuration not stated),inactive: 1.75%
6,CCN1CCC(Nc2cccc(F)c2)CC1,inactive: 7.21%
7,Cc1ccccc1NC1(C#N)CCN(Cc2ccccc2)CC1,inactive: -7.03%
8,Cn1c(=O)[nH]cc(N(CCCl)CCCl)c1=O,inactive: -10.6%
9,CN(C)c1ccc(C(=O)NCC2(N3CCCCC3)CCCCC2)cc1,inactive: 2.3%
10,O=C(NCC1(N2CCCCC2)CCCCC1)c1ccco1,inactive: 9.98%
11,CN1CCC(Nc2ccc(F)c(Cl)c2)CC1,inactive: 5.14%
12,CCOc1ncccc1C(=O)NCC1(N2CCOCC2)CCCCC1,inactive: 1.16%
13,O=C(O)C1(Nc2ccccc2)CCN(Cc2ccccc2)CC1,inactive: -7.56%
14,CC(C)(C)OC(=O)N1CCC(Nc2ccccc2)CC1,inactive: 9.07%
15,CCCOc1ccc(C(=O)NCC2(N(C)C)CCCCC2)cc1,inactive: 19.7%
16,O=c1[nH]c2ccccc2n1C1CCN(C(c2cc3ccccc3o2)c2nnnn2C2CCCC2)CC1 (configuration not stated),inactive: 3.6%
17,COc1cc(OC)cc(C(=O)NCC2(N3CCOCC3)CCCCC2)c1,inactive: -7.57%
18,COc1cccc(C(c2nnnn2C2CCCC2)N2CCC(n3c(=O)[nH]c4ccccc43)CC2)c1OC (configuration not stated),inactive: 12.6%
19,COc1cccc(C(=O)N(c2cc(C)cc(C)c2)C2CCN(C(=O)OC(C)(C)C)CC2)c1,inactive: 14.2%
20,CCC(CO)(C(=O)OC1CN2CCC1CC2)c1ccccc1 (configuration not stated),inactive: 15.4%
21,CN1CCC(Nc2ccc(Cl)cc2)CC1,inactive: -8.94%
22,COc1cc(C(=O)NCC2(N3CCOCC3)CCCCC2)cc(OC)c1C,inactive: 16.8%

row,SMILES,inhibition
1,CCCCn1nnnc1C(c1ccccc1)N1CCC(n2c(=O)[nH]c3ccccc32)CC1 (configuration not stated),inactive: 14.9%
2,O=C(NCC1(N2CCOCC2)CCCCC1)c1cc(Br)ccc1Cl,inactive: 21.1%
3,O=c1[nH]c2ccccc2n1C1CCN(C(c2cccs2)c2nnnn2C2CCCCC2)CC1 (configuration not stated),inactive: 1.17%
4,O=c1[nH]c2ccccc2n1C1CCN(C(c2ccnc3ccccc23)c2nnnn2C2CCCC2)CC1 (configuration not stated),inactive: -2.07%
5,COc1ccc(C(=O)NCC2(N3CCOCC3)CCCCC2)cc1OC,inactive: -22.7%
6,COc1cccc(C(c2nnnn2C(C)(C)C)N2CCC(n3c(=O)[nH]c4ccccc43)CC2)c1OC (configuration not stated),inactive: 4.58%
7,CCOC(=O)N1CCC(Nc2ccc(C)cc2)CC1,inactive: -6.12%
8,N/C(=N\O)c1c(N)no[n+]1[O-],inactive: 13.3%
9,O=c1[nH]c2ccccc2n1C1CCN(C(c2cccs2)c2nnnn2C2CCCC2)CC1 (configuration not stated),inactive: 7.83%
10,O=C(OC1CN2CCC1CC2)C1c2ccccc2C=Cc2ccccc21 (configuration not stated),inactive: 13.9%
11,CCCCn1nnnc1C(c1cccc(OC)c1OC)N1CCC(n2c(=O)[nH]c3ccccc32)CC1 (configuration not stated),inactive: 3.32%
12,N#Cc1ccc(C(=O)NCC2(N3CCCCC3)CCCCC2)cc1,inactive: 2.93%
13,CC(C)(C)OC(=O)N1CCC(N(C(=O)c2ccccc2)c2ccc(Cl)cc2)CC1,inactive: -4.21%
14,CN(C)C1(CNC(=O)c2cccc(C#N)c2)CCCCC1,inactive: 4.47%
15,CCCN1CCC(Nc2cc(OC)cc(OC)c2)CC1,inactive: -22.7%
16,O=c1[nH]c2ccccc2n1C1CCN(C(c2ccccc2)c2nnnn2C2CCCC2)CC1 (configuration not stated),inactive: -25.4%
17,Cc1cc(N(CCCl)CCCl)ccc1C=O,inactive: 0.64%
18,c1ccc(CN2CCC(Nc3ccccc3)CC2)cc1,inactive: -14.6%
19,CC(C)(C)n1nnnc1C(c1cccc2ccccc12)N1CCC(n2c(=O)[nH]c3ccccc32)CC1 (configuration not stated),inactive: -2.54%
